What was measured:
[1] = test system: supercoiled pUC19 DNA; conditions: 100 µM, IC50 of A549, IC50 of HT-29; human Topoisomerase I
[2] = test system: SH-SY5Y cells; assay: Cytoprotection against H2O2 (100 µM), MTT

| SMILES | Intercalation: supercoiled pUC19 DNA band (in words) [1] | Cytoprotection against H2O2 ([2]; 6.79 µM) [%] | Cytoprotection against H2O2 ([2]; 13.58 µM) [%] |
| --- | --- | --- | --- |
| O=C(NCCCCNc1c2c(nc3ccccc13)CCCC2)c1ccccc1I [Compound 1c] | best intercalative potential at concentrations of 100 µM and 59.12 µM | 89.47 | 28.45 |
| O=C(NCCCCNc1c2c(nc3ccccc13)CCCC2)c1ccc(I)cc1 [Compound 1i] | did not have any bands at supercoiled level | – | – |

Source: paper PMC6745035, “Novel tetrahydroacridine derivatives with iodobenzoic moieties induce G0/G1 cell cycle arrest and apoptosis in A549 non-small lung cancer and HT-29 colorectal cancer cells” (Molecular and Cellular Biochemistry, 2019)
